According to paper PMC9476183 (ACS Omega, 2022):

Molecular target: T1, recombinant human CYP1B1 (Homo sapiens, UniProt Q16678)
T1 sequence (Q16678 1-543): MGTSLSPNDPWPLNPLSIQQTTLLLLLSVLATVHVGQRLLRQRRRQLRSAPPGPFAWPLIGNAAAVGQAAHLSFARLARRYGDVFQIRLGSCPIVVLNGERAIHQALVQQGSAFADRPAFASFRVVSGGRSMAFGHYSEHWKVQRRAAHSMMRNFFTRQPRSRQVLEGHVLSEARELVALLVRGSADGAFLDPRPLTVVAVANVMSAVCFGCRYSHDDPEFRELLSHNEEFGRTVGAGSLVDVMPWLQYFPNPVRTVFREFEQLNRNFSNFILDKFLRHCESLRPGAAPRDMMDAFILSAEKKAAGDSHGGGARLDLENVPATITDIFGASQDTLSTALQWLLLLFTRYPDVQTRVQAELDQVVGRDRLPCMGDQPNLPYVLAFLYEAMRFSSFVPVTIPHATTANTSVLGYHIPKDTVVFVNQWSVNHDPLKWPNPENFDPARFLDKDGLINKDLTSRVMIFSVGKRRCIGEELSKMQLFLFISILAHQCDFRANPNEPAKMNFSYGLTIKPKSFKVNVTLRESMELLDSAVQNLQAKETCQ
Experiment: EROD assay, CYP1B1 inhibition
Details: IC50 CYP1B1 ± SD, recombinant human enzyme, triplicate

IC50: 20 ± 10 nM
SMILES: O=c1cc(-c2ccccc2)oc2c1ccc1ccccc12 [ANF, α-naphthoflavone]
